Reported melting point values for industrial, environmental and drug-like chemicals

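These are experimental values that the OPERA curators gathered from public databases to train and test their QSAR models. A listed value is a point estimate from one report or more. Method, purity and exact conditions of the single measurements are not given. The measured form (salt, isomer or mixture) is not always the one drawn. Unmarked limits or estimates from the upstream databases cannot be ruled out.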

Melting points are in °C. "–" marks a cell with nothing listed here. "via" names the databases from which the curators took the value.

structure (SMILES) | name | melting point (°C) | via
CCCNC(=O)CC#N | 2-cyano-N-propylacetamide | 54 | OCHEM
Cc1nc2ccc(Cl)cc2cc1C(=O)O | 6-chloro-2-methylquinoline-3-carboxylic acid | 219 | OCHEM
COc1cc(C)cc(OC)c1C=O | 2,6-dimethoxy-4-methylbenzaldehyde | 92.5 | OCHEM
N#Cc1ccc(OCC(=O)O)cc1 | (4-cyanophenoxy)acetic acid | 178 | OCHEM
Cc1ccc(Nc2nc(N)nc(CCl)n2)cc1 | – | 159 | OCHEM
CCN(CC)S(=O)(=O)c1ccc(NCCO)c(N)c1 | – | 158 | OCHEM
O=C(O)CCC1CCNCC1 | 3-(Piperidin-4-yl)propanoic acid | 276 | OCHEM
CSCC[C@@H](NC(=O)OC(C)(C)C)C(=O)O | N-(tert-Butyloxycarbonyl)-D-methionine | 48.5 | OCHEM
C=C(C)C(=O)OCCCOc1ccc(C(C)(C)c2ccc(OCCCOC(=O)C(=C)C)cc2)cc1 | – | -41 | eChemPortal
Cc1c(-c2csc(N)n2)sc2ccccc12 | 4-(3-Methyl-1-benzothiophen-2-yl)-1,3-thiazol-2-amine | 171 | OCHEM
N/N=C1\c2ccccc2C(=O)C1C(=O)C(c1ccccc1)c1ccccc1 (stereo partly drawn) | (3Z)-2-(Diphenylacetyl)-3-hydrazono-1-indanone | 242 | OCHEM
Cc1cn2c(CO)c(C)nc2s1 | (2,6-Dimethylimidazo[2,1-b][1,3]thiazol-5-yl)methanol | 150 | OCHEM
Cc1nc(N=C(N)N)nc2ccccc12 | N-(4-methylquinazolin-2-yl)guanidine | 340 | OCHEM
CCOc1ccc(C(C)O)cc1 (centres undefined) | 1-(4-Ethoxyphenyl)ethan-1-ol | 46.5 | OCHEM
O=c1nc[nH]c2cc(N3CCOCC3)c([N+](=O)[O-])cc12 | 7-(Morpholin-4-yl)-6-nitroquinazolin-4(1H)-one | 310 | OCHEM
CC(C)N(C)S(=O)(=O)c1ccc(Cl)c(C(=O)O)c1 | 2-chloro-5-{[isopropyl(methyl)amino]sulfonyl}benzoic acid | 155 | OCHEM
CCCCN(CCCC)C(=S)[S-].CCCCN(CCCC)C(=S)[S-].[Zn+2] | Zinc dibutyldithiocarbamate | 105.5 | OCHEM, PubChem
Nc1nc(CCl)nc2sc3c(c12)CCCC3 | – | 175 | OCHEM
CCCCCCCC/C=C\CCCCCCCCOC(=O)CCCCCCC/C=C\CCCCCCCC | (9Z)-9-Octadecen-1-yl (9Z)-9-octadecenoate | 3.375 | eChemPortal
COc1ccc(NC(=O)C(=O)O)cc1 | [(4-methoxyphenyl)amino](oxo)acetic acid | 207 | OCHEM
O=C1CCC(=O)N1CCBr | 1-(2-Bromoethyl)pyrrolidine-2,5-dione | 54 | OCHEM
N#CCc1cccc2cccnc12 | (Quinolin-8-yl)acetonitrile | 85 | OCHEM
O=C(O)c1ccccc1N1CCCC1=O | 2-(2-oxopyrrolidin-1-yl)benzoic Acid | 198 | OCHEM
C#CC(C)N(C)C(=O)Nc1ccc(Cl)cc1 (centres undefined) | Buturon | 143 | QSARDB
Brc1cccc(Oc2ccccc2)c1 | PBDE 002 | 20 | OCHEM
NC(=O)C(F)(F)c1ccccc1 | 2,2-difluoro-2-phenylacetamide | 117 | OCHEM
O=C(O)C1(c2ccccc2)CCC1 | 1-Phenylcyclobutanecarboxylic acid | 106 | OCHEM
CC(Oc1ccc(F)cc1)C(=O)NN (centres undefined) | 2-(4-fluorophenoxy)propanohydrazide | 166 | OCHEM
O=C(O)CCn1cnc2ccccc2c1=O | 3-(4-oxoquinazolin-3(4H)-yl)propanoic acid | 182 | OCHEM
Cc1[nH]c(N)nc(=O)c1CCO | 2-Amino-5-(2-hydroxyethyl)-6-methylpyrimidin-4(1H)-one | 273.4 | eChemPortal
CCCC(=O)OC/C=C(\C)CCC=C(C)C | Geranyl butyrate | -11.14 | eChemPortal
CCCCO[Si](C)(C)OCCCC | Dibutoxy(dimethyl)silane | -81.4 | eChemPortal
O=C(O)CCc1ccc2c(c1)OCCO2 | 3-(2,3-dihydro-1,4-benzodioxin-6-yl)propanoic acid | 65 | OCHEM
CCCCCCCCCCCCCCCCCCOC(=O)CCS | Propanoic acid, 3-mercapto-, octadecyl ester | 35.28 | eChemPortal
CCCCCCOC(=O)c1ccccc1O | Hexyl salicylate | -4.15 | eChemPortal
OC1CCc2[nH]c3ccccc3c2C1 (centres undefined) | 2,3,4,9-tetrahydro-1H-carbazol-3-ol | 146.2 | eChemPortal
CNC(=O)CCCl | 3-chloro-n-methylpropanamide | 64 | OCHEM
NC(=O)c1c(N)sc2c1CCCC2 | 2-Amino-4,5,6,7-tetrahydro-1-benzothiophene-3-carboxamide | 154 | OCHEM
COC(=O)c1cc([N+](=O)[O-])ccc1N | methyl 2-amino-5-nitrobenzoate | 164 | OCHEM
Cc1ccc(I)cc1Cc1ccc(-c2ccc(F)cc2)s1 | – | 109.4 | eChemPortal
Nc1oc2ccc(F)cc2c(=O)c1C=O | 2-amino-6-fluoro-4-oxo-4H-chromene-3-carbaldehyde | 252 | OCHEM
COCCNC(=S)NN | N-(2-Methoxyethyl)hydrazinecarbothioamide | 86 | OCHEM
O=Cc1c(F)cc(O)cc1F | 2,6-Difluoro-4-hydroxybenzaldehyde | 180.5 | OCHEM
Cc1cc2nc(O)[nH]c2cc1N | 6-Amino-5-methyl-1H-benzimidazol-2-ol | 334 | eChemPortal
O=C=NC[C@H]1CC[C@H](CN=C=O)CC1 | – | 0.745 | eChemPortal

The 6 highest values of melting point among the entries above:

structure (SMILES) | name | melting point (°C) | via
Cc1nc(N=C(N)N)nc2ccccc12 | N-(4-methylquinazolin-2-yl)guanidine | 340 | OCHEM
Cc1cc2nc(O)[nH]c2cc1N | 6-Amino-5-methyl-1H-benzimidazol-2-ol | 334 | eChemPortal
O=c1nc[nH]c2cc(N3CCOCC3)c([N+](=O)[O-])cc12 | 7-(Morpholin-4-yl)-6-nitroquinazolin-4(1H)-one | 310 | OCHEM
O=C(O)CCC1CCNCC1 | 3-(Piperidin-4-yl)propanoic acid | 276 | OCHEM
Cc1[nH]c(N)nc(=O)c1CCO | 2-Amino-5-(2-hydroxyethyl)-6-methylpyrimidin-4(1H)-one | 273.4 | eChemPortal
Nc1oc2ccc(F)cc2c(=O)c1C=O | 2-amino-6-fluoro-4-oxo-4H-chromene-3-carbaldehyde | 252 | OCHEM

Data: OPERA 2.9 data sets, kmansouri/OPERA on GitHub.